Data taken from PMC12455566, “Structural Elucidation and Covalent Modulation of the Autorepressed Orphan Nuclear Receptor NR2F6” (ACS Chemical Biology, 2025).

Target: T1, NR2F6 LBD (Homo sapiens, UniProt P10588)
T1 sequence (P10588 164-404): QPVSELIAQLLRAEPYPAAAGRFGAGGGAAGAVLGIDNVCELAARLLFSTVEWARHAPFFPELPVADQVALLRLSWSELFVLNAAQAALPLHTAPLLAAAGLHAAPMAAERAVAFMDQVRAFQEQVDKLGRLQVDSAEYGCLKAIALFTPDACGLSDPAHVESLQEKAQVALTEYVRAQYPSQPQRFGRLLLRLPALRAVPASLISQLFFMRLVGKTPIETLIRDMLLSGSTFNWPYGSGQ
Assay: DSF thermal stabilization of NR2F6 LBD by coregulator peptides
Assay type: binding
Design: encoding the human NR2F6 LBD (residues 164-404) with an N-terminal; made in house; host or cells: E. coli BL21(DE3)
Conditions: acetylated peptide 100 µM, 1% DMSO, pH 7.5
Description: Data recorded in triplicate. […] N-terminal […] Tween-20, 0.1% (w/v) BSA, pH 8.0). […] Wells containing […] 1.6.7 NR2F6 Ligation Covalent probes were incubated overnight with 20 μM (mutant) […]-SUMO-NR2F6 LBD in buffer containing 50 mM NaCl, 50 mM Tris pH 8.0 (or pH 7.0, 7.5 and 8.5 for the pH screen), 2 mM DTT, 10 […] 400 μM for TR-FRET dose-response assays and 400 μM for DSF experiments).

With `CC(=O)N1CCC[C@H]1C(=O)N1CCC[C@H]1C(=O)N[C@@H](Cc1ccc(O)cc1)C(=O)N[C@@H](C)C(=O)N[C@@H](CC(=O)O)C(=O)N[C@H](C(=O)N1CCC[C@H]1C(=O)N[C@@H](C)C(=O)N[C@@H](CC(C)C)C(=O)N[C@@H](CCCNC(=N)N)C(=O)N[C@@H](CCC(N)=O)C(=O)N[C@@H](CC(C)C)C(=O)N[C@@H](CO)C(=O)N[C@@H](CCC(=O)O)C(=O)N[C@@H](Cc1ccc(O)cc1)C(=O)N[C@@H](C)C(=O)N[C@@H](CCCNC(=N)N)C(=O)N1CCC[C@H]1C(=O)N[C@@H](Cc1c[nH]cn1)C(=O)N[C@H](C(=O)N[C@@H](C)C(=O)N[C@@H](Cc1ccccc1)C(=O)N[C@@H](CO)C(=O)N1CCC[C@H]1C(N)=O)C(C)C)[C@@H](C)O` [ac-dATRO] as the compound, how does the “effect on melting temperature (in words)” value read?
Its value is “did not affect the melting temperature”.
